Values quoted from earlier work as cited in US20050255156A1, “Reverse-micellar delivery system for controlled transportation and enhanced absorption of agents” (priority 2001, published 2005).

Conditions: dog, ileocolonic, 10 units/kg, mixed micelles of sodium glycocholate (30 mM) and linoleic acid (40 mM)

Which Bioavailability does the source give for insulin here?
Its Bioavailability is 1.4%.
